Test results taken from patent US7785581B2, “Composition and method for reducing feces toxins and treating digestive disorders” (Qingdao East Sea Pharmaceuticals Ltd., priority 2006, dated 2010).

Tested on: IBS patients
Test: Treatment of IBS with live Bifidobacterium tablets (Example 8)
Conditions: 14 to 21 days

Bifidobacterium
side effects during treatment: No side effects
